Bioassay records deposited in PubChem BioAssay by Broad Institute.
Shown are actives, neighbours in structure and some others; about 2.1% of the full set was active somewhere.
miR-122 sensor: inhibitors of miR-122 in Huh7 cells; Huh7 miR-122 Renilla luciferase sensor, 48 h; neutral wells = 0, positive control = 100; 340,000 compounds, 0.3% hits; activation (reporter increase), % at 12.5 µM;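 active = mean replicate activation score at least 90 and every replicate individually at or above 90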;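 note: higher luciferase means less miR-122 activity so hits act as miR-122 inhibitors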
UUG fidelity: modulators of yeast start codon fidelity, primary screen, whole organism, S. cerevisiae, single point, plate reader. S. cerevisiae UUG-firefly luciferase reporter, luminescence/redox ratio. activity score, % at 18.7 µM. hit rate 0.13% among 350,000;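 active = replicate mean at a twofold rise or more, about +100% in these data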;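 also: firefly luciferase made from a UUG start codon reports start codon fidelity; reporter light over untreated wells divided by growth signal over untreated wells; some hits fall short of that in this replicate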
Wnt bcat act: activates Wnt/beta-catenin signaling in a reporter cell assay; activator, plate reader; activation, % at 9.35 µM; 300,000 compounds, 1.2% hits; AID 743398; in the data active = activation above about 30%, passing the limit was not always enough
MITF TRPM1 inh: inhibitors of MITF-driven TRPM1 promoter in melanoma cells; SK-MEL-5 TRPM1 promoter luciferase, 24 h; inhibition, % at 12.5 µM; 330,000 compounds, 0.83% hits; AID 488899;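 active = mean inhibition across replicates of 60% or more, whatever share of single replicates reaches that level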
PGC1a acetyl inh: modulators of PGC1a acetylation; U2OS PGC1a acetylation, AlphaScreen anti-acetyl-lysine; with virally co-expressed GCN5 acetyltransferase; inhibition, % at 15.6 µM; 350,000 compounds, 0.17% hits; AID 651687;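 active = every replicate shows inhibition of at least 40%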
MITF act: MITF TRPM1 promoter activation in melanoma cells; activation, % at 12.5 µM; SK-MEL-5 TRPM1-promoter luciferase, 24 h; % of positive control, neutral wells = 0; 300,000 compounds, 0.75% hits;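 active = mean activation of at least 80% with every replicate also reaching 80%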
Hits are given with their value; 0 = inactive; - = not tested or not shown.

SMILES	miR-122 sensor	UUG fidelity	Wnt bcat act	MITF TRPM1 inh	PGC1a acetyl inh	MITF act
Cn1cc(-c2nnc(-c3ccccc3)o2)c2ccccc21	0	0	42	0	0	0
OCCNc1nc(N2CCCCC2)nc2ccccc12	0	0	0	0	67	-
CCNC(=O)C[C@H]1CC[C@H](NS(=O)(=O)c2ccc(F)cc2)[C@@H](CO)O1	-	0	-	-	0	-
CC(C)c1ccc(NC(=S)NCc2cccs2)cc1	102	0	0	0	0	0
S=C(NCc1cccs1)Nc1cc(Cl)cc(Cl)c1	-	-	0	0	0	-
S=C(NCc1cccs1)Nc1cccc(Cl)c1	220	-	0	0	0	0
CCCC#Cc1cnc2c(c1)C(=O)N([C@@H](C)CO)C[C@@H](C)[C@@H](CN(C)S(=O)(=O)c1cn(C)cn1)O2	0	0	-	-	0	-
CN1CCN(CC(=O)N2CCn3c4c(c5cc(C6CCCCC6)ccc53)CCCC42)CC1 (stereo not given)	0	0	0	65	0	0
CCC(=O)N(Cc1ccco1)Cc1cc2cccc(C)c2n2nnnc12	0	-	46	0	-	0
CC(=O)Oc1ccc(-c2csnn2)cc1	0	0	-	0	95	0
Nc1c(N(CCC2=CCCCC2)C(=O)COc2ccc(F)cc2)c(=O)[nH]c(=O)n1Cc1ccccc1	-	0	-	92	-	0
Nc1c(N(CCC2=CCCCC2)C(=O)CCCOc2ccccc2)c(=O)[nH]c(=O)n1Cc1ccccc1	-	0	0	0	-	0
C[C@H](CO)N1C[C@H](C)[C@@H](CN(C)Cc2cccc(C(=O)O)c2)Oc2cc(C3=CCCCC3)ccc2S1(=O)=O	0	-	-	-	0	-
CCCC(=O)Nc1cc(-c2nc3ncccc3o2)ccc1C	0	0	0	0	0	0
CC(C)C(=O)Nc1cccc(-c2nc3ncccc3o2)c1	0	0	0	0	0	-
CCCC(=O)Nc1ccc(-c2nc3ncccc3o2)cc1	0	0	37	0	-	-
CC(C)C(=O)Nc1ccc(-c2nc3ncccc3o2)cc1	0	0	37	0	0	-
CC(C)Nc1oc(-c2cccc3ccccc23)nc1C#N	0	0	-	0	0	86
C[C@@H]1CCCCO[C@H](CN(C)C(=O)NC2CCCCC2)[C@H](C)CN([C@@H](C)CO)C(=O)c2cc(NS(C)(=O)=O)ccc2O1	0	-	-	-	0	-
CC(=O)C[C@H]1c2cc(C(F)(F)F)ccc2S(=O)(=O)N1c1ccccc1	99	0	0	0	0	0
OC(CNc1ccnc2cc(Cl)ccc12)CNC1CCCCC1 (stereo not given)	0	-	0	91	0	0
CCNC1CCC(Nc2ccnc3cc(Cl)ccc23)CC1 (stereo not given)	0	0	0	0	0	0
CCn1c(C)nc2cc(C(=O)N/N=C/c3cccc(O)c3O)ccc21	0	-	41	0	0	0
C[C@@H]1CN([C@H](C)CO)C(=O)c2cc(C3=CCCCC3)cnc2O[C@@H]1CN(C)C(=O)Nc1ccc(F)cc1	0	0	-	-	-	-
O=C(NNCc1ccccc1)c1ccccn1	-	0	36	0	0	0
SMILES	miR-122 sensor	UUG fidelity	Wnt bcat act	MITF TRPM1 inh	PGC1a acetyl inh	MITF act
O=C(CC(=O)c1ccccn1)c1ccccc1	-	-	50	0	-	0
O=C(NNCc1ccccc1)c1ccccc1	0	0	0	0	0	0
COc1cc(C=O)ccc1OCc1ccncc1	-	-	0	0	-	0
COc1cc(C=O)ccc1OCc1ccc(Cl)nc1	0	0	38	0	0	0
CC(C)c1ccc2nc(N)sc2c1	0	0	0	0	0	92
Nc1nc2ccc(O)cc2s1	0	0	0	0	0	-
C[C@H]1CN([C@@H](C)CO)S(=O)(=O)c2ccc(C3=CCCCC3)cc2O[C@@H]1CN(C)C(=O)C1CC1	0	0	-	-	0	-
CC(C)c1ccc(/C=C2\SC(N3CCCC3)=NC2=O)cc1	-	-	41	0	-	0
Oc1ccc(/C=N/Nc2nc(-c3ccc(Cl)cc3)cc(C(F)(F)F)n2)cc1	0	0	0	0	64	0
CCC[n+]1c(C)sc2c3c(ccc21)CCCC3	0	0	-	67	0	0
CC[n+]1c(C)sc2c(C)cc(C)cc21	0	0	-	0	0	0
CN(C)CCCNC(=O)C[C@H]1C[C@H](C(=O)N2CCCCC2)[C@@]2(CCc3ccccc3)c3[nH]c4ccc(Cl)cc4c3CCN2C1=O	0	0	0	105	0	0
CC(C)N(C(=O)[C@H]1C[C@H](CC(=O)NCCCN(C)C)C(=O)N2CCc3c([nH]c4cc(-c5ccco5)ccc34)[C@]12C)C(C)C	0	0	0	73	0	0
